Among the data in publication PMC3679732, “Cloning and characterization of bifunctional enzyme farnesyl diphosphate/geranylgeranyl diphosphate synthase from Plasmodium falciparum” (Malaria Journal, 2013) are IC50 values, retold here.

In this assay the target is T1, farnesyl diphosphate/geranylgeranyl diphosphate synthase (rPfFPPS) (Plasmodium falciparum, UniProt Q8II79).
T1 construct: gene PF3D7_1128400
T1 sequence (Q8II79 1-376): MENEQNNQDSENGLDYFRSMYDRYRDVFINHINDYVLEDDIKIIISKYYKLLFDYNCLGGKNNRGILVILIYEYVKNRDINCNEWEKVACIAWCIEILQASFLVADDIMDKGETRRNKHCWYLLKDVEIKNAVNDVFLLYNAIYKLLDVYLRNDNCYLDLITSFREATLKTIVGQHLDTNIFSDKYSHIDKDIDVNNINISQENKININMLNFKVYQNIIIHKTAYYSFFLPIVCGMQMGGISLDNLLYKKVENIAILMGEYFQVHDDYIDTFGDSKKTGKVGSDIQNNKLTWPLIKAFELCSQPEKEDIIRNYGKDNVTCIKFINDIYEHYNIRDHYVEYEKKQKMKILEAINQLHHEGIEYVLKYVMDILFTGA
In words: biochemical.

With `O=P(O)(O)C(O)(Cc1cccnc1)P(=O)(O)O` [risedronate], inhibition was half-maximal at 1.3 ± 0.2 µM (IC50).

Broadly, the IC50 is the concentration that gives 50% inhibition.
